# Assay results taken from patent US20250388542A1, “ANALOGUES OF PENTAMIDINE AND USES THEREFOR” (Auransa Inc., priority 2018, published 2025).
# System: A549-NLR cells with anti-CD3 stimulated PBMC
# Experiment: Primary human T cell killing assay
# Assay type: cell-based
# Conditions: IL-2 10 ng/mL, positive control
# Description: In this study, A549-NLR cells were cultured alone or with PBMC's isolated from blood of three healthy donors in the presence of anti-CD3 stimulation. Cells were treated with test compound at three concentrations (0.3 μM, 1 μM and 3 μM) and IL-2 (10 ng/mL). Controls included A549-NLR cells cultured alone with each compound titration, IL-2 and vehicle. A549 growth was quantified by enumerating NucLight+ cells and A549 apoptosis by Caspase-3/7+ expression (colocalised to NucLight signal) every 2 hours for 96 hours.
# All test conditions were applied to A549-NLR cells in the presence of stimulated PBMC. The number of A549 cells was tracked by IncuCyte live cell imaging over 96 hrs. The number of A549 cells at each time-point was counted and expressed as a percentage of the starting number (on a per well basis). At each time-point, the frequency of target cell apoptosis was quantified. Mean of technical triplicates are shown, except for donor 1 at 3 μM, which was analysed as duplicates due to out of focus IncuCyte images.
substance,measurement,value
"IL-2: positive control (IL-2, 10 ng/mL) in the T cell killing assay",immune-mediated tumor cell killing,robust enhancement of immune-mediated tumor cell killing
